Assay results as given in patent publication US20220127585A1.

Molecular target: T1, B-Raf kinase, P15056
T1 chain: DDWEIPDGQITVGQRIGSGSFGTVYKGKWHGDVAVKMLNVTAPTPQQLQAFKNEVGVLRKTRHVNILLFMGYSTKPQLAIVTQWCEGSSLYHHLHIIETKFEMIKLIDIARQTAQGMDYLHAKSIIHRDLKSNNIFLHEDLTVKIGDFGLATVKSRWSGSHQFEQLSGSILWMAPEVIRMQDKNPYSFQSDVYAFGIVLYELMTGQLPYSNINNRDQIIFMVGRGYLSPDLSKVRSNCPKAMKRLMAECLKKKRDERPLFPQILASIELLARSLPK
Assay: ITC

Binder | Kd [µM]
GVLRKARHVNILLFMGYST (modifications not checked) [SEQ ID NO: 8] | 14.9
VLRKTRHVNILLFMG (modifications not checked) [SEQ ID NO: 17 (…)] | 0.35
